By UniProt entry, the sequences of proteins in these tests, tags left out.
UniProt Q92800, whole entry: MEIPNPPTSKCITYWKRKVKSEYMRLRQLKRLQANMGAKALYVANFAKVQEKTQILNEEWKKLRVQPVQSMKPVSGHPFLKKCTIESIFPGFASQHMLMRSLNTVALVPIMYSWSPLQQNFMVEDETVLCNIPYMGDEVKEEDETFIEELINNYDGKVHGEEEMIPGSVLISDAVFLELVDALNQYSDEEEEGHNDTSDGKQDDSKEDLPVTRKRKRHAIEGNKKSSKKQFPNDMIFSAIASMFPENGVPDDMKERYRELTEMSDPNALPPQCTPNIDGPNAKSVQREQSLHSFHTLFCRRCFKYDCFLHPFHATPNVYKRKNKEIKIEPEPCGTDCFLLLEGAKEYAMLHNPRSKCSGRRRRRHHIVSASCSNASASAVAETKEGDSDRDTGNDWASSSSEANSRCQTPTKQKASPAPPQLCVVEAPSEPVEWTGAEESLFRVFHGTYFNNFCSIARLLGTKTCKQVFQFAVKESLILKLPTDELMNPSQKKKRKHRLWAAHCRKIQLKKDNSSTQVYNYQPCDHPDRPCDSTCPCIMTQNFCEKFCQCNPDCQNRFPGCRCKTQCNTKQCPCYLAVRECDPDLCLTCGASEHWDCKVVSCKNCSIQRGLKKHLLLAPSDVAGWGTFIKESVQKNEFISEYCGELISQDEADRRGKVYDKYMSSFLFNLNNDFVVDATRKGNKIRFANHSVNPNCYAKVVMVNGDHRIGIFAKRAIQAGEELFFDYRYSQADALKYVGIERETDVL

In patent publication US10954219B2, “1,3-benzodioxole derivative” (DAIICHI SANKYO COMPANY, LIMITED, priority 2014, dated 2021):

Experiments:
[1] = molecular target: PRC2-EZH1 (WT EZH1) (Homo sapiens, UniProt Q92800); assay: EZH1 methyltransferase inhibitory activity evaluation
[2] = test system: Intracellular H3K27me3 in HCT116 cells; assay: Intracellular H3K27me3 inhibitory activity evaluation; type: cell-based; settings: Homo sapiens, HCT-116, 72 h, read-out: Test Example 3 H3K27me3 inhibition (HCT116) IC50 (μM)

## Cc1cc(C)c(CNC(=O)c2cc(Br)c3c(c2C)OC(C)([C@H]2CC[C@@H](N(C)C)CC2)O3)c(=O)[nH]1 (relative stereo) [Example 41, 7-Bromo-2-[cis-4-(dimethylamino)cyclohexyl]-N-[(4,6-dimethyl-2-oxo-1,2-dihydropyridin-3-yl)methyl]-2,4-dimethyl-1,3-benzodioxole-5-carboxamide]
[1]
  IC50: 59 nM

## Cc1cc(C)c(CNC(=O)c2cc(Br)c3c(c2C)O[C@@](C)([C@H]2CC[C@H](N(C)C)CC2)O3)c(=O)[nH]1 (single isomer, unassigned) [Example 15]
[1]
  IC50: 7.4 nM

## CCN1CCN(c2ccc(-c3cc(C(=O)NCc4c(C)cc(C)[nH]c4=O)c(C)c4c3O[C@](C)(CN3CCOCC3)O4)cn2)CC1 [Example 77, (2R)—N-[(4,6-Dimethyl-2-oxo-1,2-dihydropyridin-3-yl)methyl]-7-[6-(4-ethylpiperazin-1-yl)-3-pyridyl]-2,4-dimethyl-2-(morpholinomethyl)-1,3-benzodioxole-5-carboxamide]
[2]
  IC50: 0.024 µM
